Target: μ-opioid receptor (Homo sapiens (Human), UniProt P35372)
Test: μ-opioid receptor [35S]GTPγS functional assay, HEK-293 cells
Details: for μ Emax (%): maximal effect relative to DAMGO, HEK-293 cells

Row | SMILES | μ Emax (%) | EC50 (read-out: μ EC50, μ GTP EC50, membranes from HEK-293 cells)
1 | COc1ccc2c3c1O[C@H]1C4(OC)CC[C@@]5(C[C@]4(C)COCc4ccoc4)[C@@H](C2)N(C)CC[C@]315 | 93.5 ± 1.76% | 402 nM
2 | COc1ccc2c3c1O[C@H]1C4(OC)CC[C@@]5(C[C@]4(C)COCc4cc6ccccc6s4)[C@@H](C2)N(C)CC[C@]315 | 87.5 ± 2.33% | –

From patent US9988392B2, “7-beta-alkyl analogs of orvinols” (dated 2018)
